Tested on: primary human peripheral blood mononuclear cells (PBMC) co-cultured with target antigen-expressing tumor cells
Experiment: PBMC tumor co-culture assay, cytokine secretion (TNFα, IFNλ1)
Assay type: cell-based
Conditions: qualitative
Excerpt: STING activation is canonically associated with induction of type I/III IFNs (interferons) through IRF3 (interferon regulatory factor 3) signaling, but can also induce proinflammatory cytokines such as TNFα (tumor necrosis factor alpha) through the NF-κB (nuclear factor kappa-light-chain-enhancer of activated B cells) pathway.
The immunoconjugates of the invention can be assessed in a co-culture assay using primary human peripheral blood mononuclear cells (PBMC) co-cultured with target antigen-expressing tumor cells. Briefly, PBMCs are freshly isolated from healthy human donor blood (Stanford Blood Center) by density centrifugation. PBMCs are then co-cultured with antigen-expressing tumor cells at a 10:1 effector to target ratio in complete medium (RPMI supplemented with 10% FBS) and incubated overnight with a range of concentrations of the indicated test articles. Activation is measured by secretion of pro-inflammatory cytokines, such as IFNλ1 and TNFα, by BioLegend LEGENDPLEX™ cytokine bead array.

“trastuzumab: recombinant DNA-derived, IgG1 kappa, monoclonal antibody that is a humanized version of a murine anti-HER2 antibody (4D5)” was tested, and the “IFNλ1 elicited in the PBMC tumor co-culture assay” value was “essentially no” and the “TNFα elicited in the PBMC tumor co-culture assay” value was “essentially no”.
